Data set [1] can be described thus: Parallel artificial membrane permeability assay (PAMPA). The settings on record: passive permeability. (In general: The PAMPA barrier holds no transporters, so it reflects passive diffusion.)
A further data set deals with P-glycoprotein (P-gp) (Homo sapiens, UniProt P08183). In words: P-glycoprotein (P-gp) efflux. Particulars: Table 9.
The next data set addresses BCRP (Homo sapiens, UniProt Q9UNQ0). In words: BCRP efflux. Particulars: Table 9.
A further data set addresses CYP3A4 (Homo sapiens, UniProt P08684). Briefly: CYP3A4 inhibition. The settings on record: read-out: CYP3A4; Table 9.

Amino acid sequences for entries named in this document (tags omitted).
UniProt P08183, whole entry: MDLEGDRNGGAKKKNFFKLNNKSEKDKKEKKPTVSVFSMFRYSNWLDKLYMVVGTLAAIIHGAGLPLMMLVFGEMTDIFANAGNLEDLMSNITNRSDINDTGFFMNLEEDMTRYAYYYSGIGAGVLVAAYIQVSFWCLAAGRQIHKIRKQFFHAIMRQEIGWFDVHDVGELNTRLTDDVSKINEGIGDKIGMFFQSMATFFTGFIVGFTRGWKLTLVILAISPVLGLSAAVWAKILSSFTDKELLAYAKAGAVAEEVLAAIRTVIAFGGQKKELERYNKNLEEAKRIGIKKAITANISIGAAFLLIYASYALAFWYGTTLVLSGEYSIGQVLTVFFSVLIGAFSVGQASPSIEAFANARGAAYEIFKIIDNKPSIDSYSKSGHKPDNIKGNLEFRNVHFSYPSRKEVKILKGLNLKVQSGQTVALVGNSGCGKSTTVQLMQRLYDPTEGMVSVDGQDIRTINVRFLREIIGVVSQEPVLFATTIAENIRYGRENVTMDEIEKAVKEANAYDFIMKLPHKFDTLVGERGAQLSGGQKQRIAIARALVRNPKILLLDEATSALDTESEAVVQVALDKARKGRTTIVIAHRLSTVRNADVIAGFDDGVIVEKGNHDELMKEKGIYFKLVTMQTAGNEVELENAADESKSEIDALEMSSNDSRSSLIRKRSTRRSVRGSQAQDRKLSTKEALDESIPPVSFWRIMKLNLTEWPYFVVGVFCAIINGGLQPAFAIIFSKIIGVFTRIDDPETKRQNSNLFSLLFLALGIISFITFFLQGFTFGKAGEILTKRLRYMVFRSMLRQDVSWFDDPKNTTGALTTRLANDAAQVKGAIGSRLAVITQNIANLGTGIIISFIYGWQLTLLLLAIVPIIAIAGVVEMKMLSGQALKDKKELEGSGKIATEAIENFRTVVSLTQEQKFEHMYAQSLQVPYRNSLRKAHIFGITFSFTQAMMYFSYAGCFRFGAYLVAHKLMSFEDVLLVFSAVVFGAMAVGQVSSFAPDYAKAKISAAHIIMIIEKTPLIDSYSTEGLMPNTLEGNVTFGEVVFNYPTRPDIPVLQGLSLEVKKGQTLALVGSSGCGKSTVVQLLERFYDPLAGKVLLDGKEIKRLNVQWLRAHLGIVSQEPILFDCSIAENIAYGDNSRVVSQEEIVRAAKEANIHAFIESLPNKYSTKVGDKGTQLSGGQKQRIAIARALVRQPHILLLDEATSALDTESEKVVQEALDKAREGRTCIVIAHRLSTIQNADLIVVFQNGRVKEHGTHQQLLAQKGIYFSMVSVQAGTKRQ
UniProt Q9UNQ0, whole entry: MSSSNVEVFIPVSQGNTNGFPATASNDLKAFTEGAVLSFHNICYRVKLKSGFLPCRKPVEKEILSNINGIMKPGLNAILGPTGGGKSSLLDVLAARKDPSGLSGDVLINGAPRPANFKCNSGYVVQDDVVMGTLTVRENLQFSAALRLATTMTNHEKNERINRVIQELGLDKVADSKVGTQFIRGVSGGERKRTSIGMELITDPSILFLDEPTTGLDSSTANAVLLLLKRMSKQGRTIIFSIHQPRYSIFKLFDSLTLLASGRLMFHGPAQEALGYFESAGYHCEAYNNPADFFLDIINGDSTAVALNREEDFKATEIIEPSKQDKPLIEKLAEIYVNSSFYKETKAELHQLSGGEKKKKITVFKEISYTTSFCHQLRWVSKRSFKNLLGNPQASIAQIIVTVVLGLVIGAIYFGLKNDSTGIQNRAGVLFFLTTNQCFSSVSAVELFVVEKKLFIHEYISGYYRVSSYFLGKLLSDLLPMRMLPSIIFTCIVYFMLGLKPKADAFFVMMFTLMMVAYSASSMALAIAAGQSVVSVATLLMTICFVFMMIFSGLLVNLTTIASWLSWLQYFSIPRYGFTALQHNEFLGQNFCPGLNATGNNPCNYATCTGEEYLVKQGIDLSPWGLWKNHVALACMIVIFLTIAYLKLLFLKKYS
UniProt P08684, whole entry: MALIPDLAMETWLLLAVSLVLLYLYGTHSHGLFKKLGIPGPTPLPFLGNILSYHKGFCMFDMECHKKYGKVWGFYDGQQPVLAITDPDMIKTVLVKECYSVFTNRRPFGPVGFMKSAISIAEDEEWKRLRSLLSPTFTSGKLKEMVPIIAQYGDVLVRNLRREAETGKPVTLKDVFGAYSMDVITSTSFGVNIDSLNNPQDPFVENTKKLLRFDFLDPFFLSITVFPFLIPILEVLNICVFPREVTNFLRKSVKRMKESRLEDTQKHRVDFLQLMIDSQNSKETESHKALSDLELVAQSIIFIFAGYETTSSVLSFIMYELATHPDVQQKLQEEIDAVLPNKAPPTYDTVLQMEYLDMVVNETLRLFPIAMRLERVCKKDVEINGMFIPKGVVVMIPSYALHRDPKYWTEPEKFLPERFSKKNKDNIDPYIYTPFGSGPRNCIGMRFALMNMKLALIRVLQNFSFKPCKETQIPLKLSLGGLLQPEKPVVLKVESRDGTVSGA

In brackets after ≈: the same amount, converted by molar mass. Where only a bound is given, the exact number is not on record here.

As a reminder, the Solubility is how much of the substance goes into solution per volume. A high value points to a readily soluble substance. Take `CC[C@@H](C)n1ncn(-c2ccc(N3CCN(c4ccc(OC[C@@H]5CO[C@@](C)(c6ccc(Cl)cc6Cl)O5)cc4)CC3)cc2)c1=O`: the PAMPA result in data set [1] is “Poor”. For the same molecule, on P-glycoprotein (P-gp), the P-gp entry is recorded as “No”. Further, the “Solubility” value in the data set “Solubility” is 1.56 µM (≈ 0.996 µg/mL). Moreover, the BCRP entry at BCRP is given as “No”.
Take `CC[C@@H](C)n1ncn(-c2ccc(N3CCN(c4ccc(OC[C@@H]5CO[C@](C)(c6ccc(Cl)cc6Cl)O5)cc4)CC3)cc2)c1=O`: in data set [1], the PAMPA result was “Poor”. Besides, the IC50 at CYP3A4 is more than 20 µM. Further, the P-gp entry on P-glycoprotein (P-gp) is “No”. Also, the “Solubility” value in the data set “Solubility” worked out at 0.8 µM (≈ 0.511 µg/mL). Moreover, the BCRP result on BCRP is recorded as “No”.

The values are drawn from patent US11390613B2, “Azole analogues and methods of use thereof” (UNIVERSITY OF CONNECTICUT, priority 2017, dated 2022).
